Experimental data taken from ChEMBL document CHEMBL3232786, “Therapeutic utility of cannabinoid receptor type 2 (CB(2)) selective agonists” (J Med Chem, 2013).

Test: Selectivity ratio of Ki for CB2 receptor of mouse spleen to Ki for human CB1 receptor
Type: tissue-based

CCCCC/C=C\C/C=C\C/C=C\C/C=C\CCCC(=O)N[C@H](C)CO
Ratio Ki: 40.7
